{"source": "patent US6685915B2", "about": "“Extended-linear polymeric contrast agents, and synthesizing methods, for medical imaging” (General Electric Company, priority 1999, dated 2004)", "origin": "cited, not measured here", "conditions": "in vivo; cited from earlier work"}
{"substance": "albumin—Gd-DTPA", "values": [{"measurement": "immune reactions and toxicity when injected", "result": "substantial toxicities"}]}
